Assay outcomes as filed in PubChem BioAssay.
Epigenetic derep = epigenetic control regulation, reporter derepression. murine LDR cells, GFP reporter derepression, 30 h. Potency, µM (highest dose often 53.9 µM), actives largely listed as activators. hit rate 0.2% among 280,000. AID 1865; note: nearly all actives have a fitted effect of over 60% in size
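Reporter derepression read as number of fluorescent GFP-positive objects, 20-120 um in size, counted by laser-scanning cytometer. Mouse LDR line with an epigenetically silenced CMV-GFP locus; compound incubation 30 h, 37 C.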
Vif-APOBEC3G blk = Vif-A3G binding inhibition; Q9HC16; Potency, µM (titrated, usually from 46.1 µM), hits mostly inhibitors; hit rate 0.076% among 410,000; HeLa A3G-eYFP + Vif (tagged APOBEC3G with the HIV-1 protein that degrades it), YFP fluorescence, overnight; note: nearly all actives have a fitted effect of over 60% in size
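HeLa cells stably expressing Vif and C-terminally eYFP-tagged A3G, seeded overnight at 37 deg C, then exposed to compound by pintool overnight at 37 deg C. Rise in yellow fluorescence (Ex 488/Em 500-530, Acumen) marks blocked Vif-driven A3G degradation.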
Rango complex inh = inhibitors of Rango-importin beta complex formation; Q14974; Rango CFP/YFP FRET sensor + importin beta, 45 min; Potency, µM (top dose mostly 92.2 µM); hit rate 0.031% among 340,000; calls by dose curve; note: nearly all actives have a fitted effect of over 15% in size
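FRET biosensor (snurportin 1 IBB flanked by EYFP and cerulean), 50 nM, with compound 5 min, then 0.125 microM importin beta in PBS, 1 mM DTT, 0.02% Tween-20, 0.1% BSA. CFP/YFP ratio read after 45 min at room temperature; pre-read flags interference.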
Vif-A3F inh = inhibitors of Vif-A3F interaction; hit rate 0.2% among 390,000; Potency, µM (doses to about 46.1 µM); HeLa A3F-eYFP + Vif (tagged APOBEC3F with the HIV-1 protein that degrades it), YFP fluorescence increase; note: nearly all actives have a fitted effect of over 65% in size
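HeLa cells stably expressing Vif plus C-terminally eYFP-tagged A3F were seeded, incubated overnight at 37 deg C, dosed with compound, incubated overnight again at 37 deg C. Yellow fluorescence (Ex 488/Em 500-530) reported blocked Vif-mediated A3F-eYFP degradation.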
Rango release inh = prevents RanGTP from dissociating the Rango-importin beta complex | O95149+P62826 | Biochemical FRET Rango-importin beta, RanGTP-induced dissociation | AID 540253 | hit rate 0.071% among 340,000 | Potency, µM (series often up to 46.1 µM); calls by dose curve; note: nearly all actives have a fitted effect of over 45% in size
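Compounds preincubate 5 min with complex of recombinant Rango and importin beta in PBS with 1 mM DTT. Ran (0.6 uM) loaded with 2 mM GTP plus 0.2 uM RCC1 starts dissociation; FRET is recorded 45 min later.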
C127i cell count = changes parental c127i cell counts in epigenetic modulator counter-screen; shares compounds with Epigenetic derep; mouse c127i parental cells, fluorescent cell count, 30 h; Potency, µM, usual class: activators; hit rate 20% among 60
HCC4017 tox = reduces HCC4017 lung cancer cell viability among epigenetic modulators | shares compounds with Epigenetic derep | hit rate 30% among 45 | Potency, µM (top dose mostly 46.1 µM), actives largely listed as cytotoxic | AID 493071 | HCC4017 NSCLC viability, CellTiter-Glo ATP luminescence, 72 h
H358 viab = reduces H358 lung cancer cell viability among epigenetic modulators. H358 NSCLC viability, ATP luminescence, 72 h. shares compounds with Epigenetic derep. Potency, µM (series often up to 46.1 µM), hits mostly cytotoxic. hit rate 30% among 45. AID 493074
Each line names hits and unclear results; the compound was inactive in the other large screens (follow-up assays come after a bar, where they were run). Hits are enriched below; roughly 0.42% of the tested compounds scored in any of these assays. Unless noted, calls come from the whole dose curve; as a rule, active = well fitted curve in the direction sought with a large enough effect; inconclusive = small, poorly fitted or top-dose-only effect, or another doubt; inactive = no such curve, though single readings can be large; an effect the other way counts as inactive or inconclusive.

CCOc1ccc(NC(=O)N2CCN(S(=O)(=O)c3ccc4c(ccn4C)c3)CC2)cc1	none (no result: Rango complex inh, Rango release inh)
CCOc1ccc(NC(=O)Cn2cc(C(=O)c3ccc(CC)cc3)c(=O)c3ccc(C)nc32)cc1	none (no result: Rango complex inh, Rango release inh)
CCc1ccc(C(=O)c2cn(CC(=O)Nc3ccc(OC)c(Cl)c3)c3nc(C)ccc3c2=O)cc1	Epigenetic derep 16µM (no result: Rango complex inh, Rango release inh)
COc1ccc(-n2c(C)cc(/C=C3\SC(=S)NC3=O)c2C)cc1	Epigenetic derep 25µM, Rango complex inh inconclusive, Vif-A3F inh 10µM, Rango release inh inconclusive
CCCCn1c(N)c(N(Cc2ccccc2OC)C(=O)c2ccc([N+](=O)[O-])s2)c(=O)[nH]c1=O	Vif-APOBEC3G blk inconclusive, Vif-A3F inh 13µM (no result: Epigenetic derep)
COc1ccccc1C1CC(=O)Oc2cc3c(cc21)OCO3 (stereo not given)	none (no result: Vif-APOBEC3G blk, Rango complex inh, Vif-A3F inh, Rango release inh)
Cn1nc(-c2cccnc2)nc2c(=O)n(C)c(=O)nc1-2	none (no result: Epigenetic derep, Rango complex inh, Vif-A3F inh, Rango release inh)
CN1CCN(c2cc(N3CCN(C(=O)c4ccco4)CC3)c3c4c(onc24)-c2ccccc2C3=O)CC1	none (no result: Epigenetic derep)
CCOC(=O)N1CCN(c2cc(NCCC(=O)O)c3c4c(onc24)-c2ccccc2C3=O)CC1	Vif-APOBEC3G blk inconclusive, Rango complex inh inconclusive, Vif-A3F inh 7.1µM, Rango release inh inconclusive
CCCCNc1cc(N2CCN(C3CCCCC3)CC2)c2noc3c2c1C(=O)c1ccccc1-3	Vif-APOBEC3G blk inconclusive, Vif-A3F inh inconclusive (no result: Rango complex inh, Rango release inh)
O=C(O)CCCNc1cc(N2CCC3(CC2)OCCO3)c2noc3c2c1C(=O)c1ccccc1-3	none (no result: Vif-APOBEC3G blk, Rango complex inh, Vif-A3F inh, Rango release inh)
O=C(O)CCCNc1cc(N2CCN(C(=O)c3ccco3)CC2)c2noc3c2c1C(=O)c1ccccc1-3	Vif-APOBEC3G blk 22µM, Rango complex inh inconclusive, Vif-A3F inh inconclusive, Rango release inh inconclusive (no result: Epigenetic derep)
O=C1c2ccccc2-c2onc3c(N4CCN(CCO)CC4)cc(N4CCN(C(=O)c5ccco5)CC4)c1c23	Vif-APOBEC3G blk inconclusive, Rango complex inh 37µM, Vif-A3F inh inconclusive (no result: Epigenetic derep)
O=CNc1ccc2c3c(cccc13)-c1ccccc1-2	Vif-APOBEC3G blk 13µM, Rango complex inh inconclusive, Vif-A3F inh inconclusive, Rango release inh inconclusive (no result: Epigenetic derep)
Cc1ccccc1CNC(=O)c1cc2cc(S(=O)(=O)N3CCCCC3)ccc2n1C	none (no result: Rango complex inh, Rango release inh)
CCCCC1=CC2=C(c3ccco3)C(=O)C(C)(OC(=O)c3ccc(OC)cc3)C(=O)C2=CN1Cc1ccccc1 (stereo not given)	Epigenetic derep 18µM, Rango complex inh inconclusive, Vif-A3F inh inconclusive, Rango release inh inconclusive
CCCCC1=CC2=CC(=O)C(C)(OC(=O)CC)C(=O)C2=CN1Cc1ccc(OC)cc1 (stereo not given)	Rango complex inh inconclusive, Rango release inh 8.2µM
CCCCC1=CC2=CC(=O)C(C)(OC(=O)CC)C(=O)C2=CN1CC(C)C (stereo not given)	Rango complex inh inconclusive, Rango release inh inconclusive
O=C(CSc1ccccn1)N1CCN(C(=O)CSc2ccccn2)CC1	Rango complex inh 65µM
O=C(CSc1cccc2cccnc12)N1CCCC1	Vif-APOBEC3G blk inconclusive | HCC4017 tox inconclusive | H358 viab inactive
COc1ccc(/C=C/C(=O)N2CCC(c3nc4ccccc4o3)CC2)cc1OC	none (no result: Rango complex inh, Rango release inh)
C(=N\Nc1nc(-c2cccnc2)nc2ccccc12)/c1ccccc1	Rango complex inh inconclusive
C(=N\Nc1nc(-c2ccccn2)nc2ccccc12)/c1ccccc1	Epigenetic derep 10µM (no result: Rango complex inh, Vif-A3F inh, Rango release inh) | C127i cell count inactive | HCC4017 tox 0.4µM | H358 viab inconclusive
Cc1ccc(S(=O)(=O)NCC(c2ccc(N(C)C)cc2)N2CCc3ccccc32)cc1C (stereo not given)	none (no result: Rango complex inh, Rango release inh)
Cc1cc(C)cc(Nc2nc3ccccc3c(=O)[nH]2)c1	Vif-A3F inh inconclusive
COc1nc(Nc2nc3ccccc3c(=O)[nH]2)nc2ccc(C)cc12	Epigenetic derep inconclusive | C127i cell count inactive | HCC4017 tox 2.8µM | H358 viab 3.1µM
CSc1nsc(/C=C/Nc2cccc(Cl)c2)c1C#N	Epigenetic derep 7.1µM, Vif-APOBEC3G blk inconclusive, Rango complex inh inconclusive, Vif-A3F inh inconclusive, Rango release inh inconclusive | C127i cell count 10µM | HCC4017 tox inactive | H358 viab inactive
Oc1ccc(Cl)cc1C=Nc1ccccc1Br	none
Oc1ccc(Br)cc1C=Nc1ccc2c3c(cccc13)CC2	Epigenetic derep 3.5µM, Vif-APOBEC3G blk inconclusive, Rango complex inh inconclusive | C127i cell count inactive | HCC4017 tox inactive | H358 viab inconclusive
O=c1c2ccccc2nc(COc2ccccc2)n1/N=C/c1ccc(O)cc1O	Rango complex inh inconclusive, Rango release inh inconclusive
O=c1c2ccccc2nc(COc2ccccc2)n1/N=C/c1c[nH]c2ccccc12	Epigenetic derep 10µM, Vif-A3F inh inconclusive | C127i cell count inactive | HCC4017 tox inconclusive | H358 viab inactive
COc1ccc2c(C)cc(SCC(=O)N(C)C3CCS(=O)(=O)C3)nc2c1 (stereo not given)	Epigenetic derep 10µM, Vif-APOBEC3G blk inconclusive, Rango complex inh inconclusive, Vif-A3F inh 11µM | C127i cell count inconclusive | HCC4017 tox inactive | H358 viab inactive
